pKi: −log10 of the molar value.
Biological target: Glutamate NMDA receptor; GRIN1/GRIN2B (Homo sapiens, UniProt Q05586+Q13224)
Assay: Compound was evaluated for in vitro inhibition of [3H][(E)-N-(2-methoxybenzyl)cinnamamidine binding to human NR1a/NR2B receptors expressed in LtK-cells
Type: cell-based

Amino acid sequences for entries named in this document (tags omitted).
UniProt Q13224, whole entry: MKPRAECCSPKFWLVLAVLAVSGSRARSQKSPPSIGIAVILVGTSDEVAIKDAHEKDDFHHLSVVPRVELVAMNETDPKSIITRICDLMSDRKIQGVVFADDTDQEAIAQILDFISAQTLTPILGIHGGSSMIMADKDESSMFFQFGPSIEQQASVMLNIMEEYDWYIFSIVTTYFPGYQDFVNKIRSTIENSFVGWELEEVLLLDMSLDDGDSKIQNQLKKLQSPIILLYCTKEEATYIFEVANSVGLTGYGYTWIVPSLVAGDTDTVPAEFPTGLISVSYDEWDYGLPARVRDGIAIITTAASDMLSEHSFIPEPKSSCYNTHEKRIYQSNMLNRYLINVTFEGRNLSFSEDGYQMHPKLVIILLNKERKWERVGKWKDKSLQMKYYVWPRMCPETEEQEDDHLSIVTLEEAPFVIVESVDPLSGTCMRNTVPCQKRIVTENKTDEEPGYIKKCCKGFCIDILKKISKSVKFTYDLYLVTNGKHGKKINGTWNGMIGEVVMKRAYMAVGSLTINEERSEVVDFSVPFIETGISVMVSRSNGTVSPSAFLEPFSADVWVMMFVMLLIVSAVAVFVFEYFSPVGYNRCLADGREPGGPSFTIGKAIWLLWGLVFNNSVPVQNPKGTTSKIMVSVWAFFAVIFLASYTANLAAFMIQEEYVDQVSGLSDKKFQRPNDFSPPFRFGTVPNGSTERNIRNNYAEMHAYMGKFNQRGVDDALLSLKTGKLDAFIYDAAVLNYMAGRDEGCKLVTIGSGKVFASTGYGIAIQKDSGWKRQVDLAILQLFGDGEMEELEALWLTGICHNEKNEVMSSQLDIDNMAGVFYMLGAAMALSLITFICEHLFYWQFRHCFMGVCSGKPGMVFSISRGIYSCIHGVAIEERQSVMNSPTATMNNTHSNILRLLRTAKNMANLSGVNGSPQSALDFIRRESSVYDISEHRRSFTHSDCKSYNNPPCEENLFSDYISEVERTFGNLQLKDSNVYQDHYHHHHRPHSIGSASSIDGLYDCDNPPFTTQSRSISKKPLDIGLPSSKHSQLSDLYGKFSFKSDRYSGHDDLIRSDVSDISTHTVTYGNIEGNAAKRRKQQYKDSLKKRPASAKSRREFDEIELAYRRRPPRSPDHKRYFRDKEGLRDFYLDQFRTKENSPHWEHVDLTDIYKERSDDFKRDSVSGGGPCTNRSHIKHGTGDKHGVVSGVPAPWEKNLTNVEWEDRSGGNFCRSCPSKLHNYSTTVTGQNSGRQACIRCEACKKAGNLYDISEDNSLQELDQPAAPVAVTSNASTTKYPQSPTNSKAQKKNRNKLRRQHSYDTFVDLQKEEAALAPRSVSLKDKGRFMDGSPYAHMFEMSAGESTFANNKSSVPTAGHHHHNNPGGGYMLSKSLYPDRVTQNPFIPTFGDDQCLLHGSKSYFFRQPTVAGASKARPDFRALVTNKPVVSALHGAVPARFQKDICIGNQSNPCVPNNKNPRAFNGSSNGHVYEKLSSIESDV

pKi: 8.82
Structure (SMILES): Oc1ccc2nc(CN3CCC(Cc4ccccc4)CC3)[nH]c2c1
